From PubChem
HEK293 tox: cytotoxicity counter-screen for GLP-1 receptor inverse agonists. HEK293 cAMP-luciferase reporter cells, luminescence, 24 h. Potency, µM (titrated, usually from 38.3 µM), usual class: inhibitors. hit rate 0.13% among 410,000;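 also: loss of luciferase light is scored as toxicity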
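A 23 nL compound transfer followed 12 hours of cell culture at 37 deg C; exposure then lasted 24 hr. Luciferase assay detection reagent was dispensed and plates read for luminescence after a 12 min room-temperature wait.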
Pin1 inhibitor: blocks the human prolyl isomerase Pin1. Q13526. hit rate 0.009% among 390,000. Pin1 FP peptide displacement, HiFluor488, 10 min. Potency, µM (doses to about 115 µM), usual class: inhibitors. AID 504891; active = well fitted inhibition curve with a large enough effect in the polarisation, with a control signal flat, not every such curve was filed as active; inconclusive = small, poorly fitted or top-dose-only effect, or effect the other way, or a change in a side signal; inactive = no such curve, though single readings can be large or run the other way; the % refers to the polarisation
miR-21 reporter: miR-21 reporter, rising signal | HeLa miR-21 FLuc reporter, luciferase, 48 h | Potency, µM (doses to about 38.3 µM) | 340,000 tested, under 10 active | AID 2288; active = well fitted rising curve with a large enough effect; inconclusive = small, poorly fitted or top-dose-only effect; inactive = no such curve, though single readings can be large or run the other way;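 note: miR-21 action dims this reporter so a rising signal means less miR-21 action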
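HeLa cells endogenously expressing miR-21, stably carrying CMV-driven firefly luciferase with a downstream miR-21 binding site, 2000 cells/well. Titrations up to approximately 40 uM, 48 hours; luciferase luminescence read.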
PTHR1 ag: PTHR1 (human) receptor agonism; Potency, µM (highest dose often 115 µM), most hits filed as activators; AID 743266; Q03431; HEK293 GP2 PTHR1 cells, GloSensor cAMP luminescence, 1 h; hit rate 0.075% among 410,000; also: nearly all actives have a fitted effect of over 55% in size
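HEK-293-derived GP2 cells expressing PTHR1 and a GloSensor cAMP reporter, 3,000/well, plated overnight, given luciferin plus IBMX (each 0.5 mM as added) for 1 h at 37 °C, then compound for 1 h at 37 °C. Luminescence was read after 15 min at room temperature.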
GLP1R ag: agonists of human GLP-1 receptor | hit rate 0.007% among 380,000 | Potency, µM (titrated, usually from 45.6 µM), actives largely listed as activators | P43220 | HEK293 GLP-1R CRE-luciferase, luminescence, 4-6 h; cells express a hypersensitive GLP-1R form
GLP-1R inv ag: inverse agonists of human GLP-1 receptor | P43220 | hit rate 1.6% among 410,000 | Potency, µM (series often up to 38.3 µM), hits mostly inhibitors | HEK293 GLP-1R CRE-luciferase, luminescence, 24 h; GLP-1R form is constitutively active; also: nearly all actives have a fitted effect of over 55% in size
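Using stably transfected HEK293 (constitutively active GLP-1R, cAMP-luciferase reporter), compounds were incubated 24 hr and luciferase measured by luminescence.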
A number is an active result; – = inactive; ? = inconclusive; · = not tested or not shown. This is a sample that favours compounds with a hit; in the whole collection about 1.7% have one here. Unless noted, calls follow the shape of the dose curve; as a rule, active = well fitted curve in the direction sought with a large enough effect; inconclusive = small, poorly fitted or top-dose-only effect, or another doubt; inactive = no such curve, though single readings can be large; an effect the other way counts as inactive or inconclusive.

SMILES	HEK293 tox	Pin1 inhibitor	miR-21 reporter	PTHR1 ag	GLP1R ag	GLP-1R inv ag
Cc1c(C(=O)N2CCOCC2)[nH]c2c1C(=O)CC(c1ccccc1Cl)C2 (stereo not given)	5.6µM	–	?	–	–	?
COc1ccc(-c2csc(NCCc3nc4cc(Cl)c(N5CCCCC5)cc4n3CCOCCO)n2)cc1	–	–	·	–	–	?
OCCCn1c(CCCNc2nc(-c3cccc(Br)c3)cs2)nc2cc(Cl)c(N3CCCCC3)cc21	–	–	–	–	–	10µM
COc1cc(-c2nc(-c3ccccc3)c(-c3ccc(F)cc3)[nH]2)cc2c1OCO2	–	–	–	–	–	?
COc1ccc(-c2[nH]c(-c3ccc4c(c3)OCO4)nc2-c2ccccc2)cc1	?	?	–	–	–	1.8µM
O=C(CC1C(=O)N(c2ccccc2)C(=S)N1c1ccccc1)c1ccc(Br)cc1 (stereo not given)	–	–	–	–	–	11µM
O=C(C1CCCCC1)N(Cc1cccnc1)c1nc2c(F)cccc2s1	–	–	–	?	·	8.9µM
COc1ccc2[nH]c3c(NCCC4=CCCCC4)ncnc3c2c1	?	–	–	–	–	5µM
CCN(CC)C(=O)c1sc2c(c1C)c(=O)n(CCc1ccccc1)c(=O)n2Cc1cccc(Cl)c1	–	–	–	–	·	?
CCN(CC)C(=O)c1sc2c(c1C)c(=O)n(Cc1ccccc1)c(=O)n2Cc1ccccc1C	–	–	–	–	·	11µM
Cc1cc(NC(=O)N2CCC(CN3CCCCCC3)CC2)ccc1Br	–	–	–	–	·	–
Cc1ccc(NS(=O)(=O)c2ccc3ccccc3c2)cc1C	·	–	·	·	·	·
CN(C)S(=O)(=O)c1ccc(N2C(=O)CC2(/C=C/c2ccccc2)C(=O)NC2CCCC2)cc1 (stereo not given)	–	–	–	–	–	–
COc1ccccc1/C=C/C1(C(=O)NC2CCCC2)CC(=O)N1c1ccccc1 (stereo not given)	–	–	–	–	–	3.2µM
c1ccc(P(c2ccccc2)c2cnc3ccccn23)cc1	·	–	·	·	·	·
Cc1ccc(N2CC(NC(=O)C3CC3)CC2=O)cc1C (stereo not given)	–	–	–	–	·	–
O=S(=O)(c1ccc(F)cc1)N(Cc1nc(-c2ccccc2)no1)C1CCCCC1	–	–	–	–	·	?
O=S(=O)(c1ccccc1)N(Cc1nc(-c2ccccc2)no1)C1CCCCC1	–	–	–	–	–	6.3µM
Cc1ccc(S(=O)(=O)N(Cc2nc(-c3cccc(C)c3)no2)C2CCCCC2)cc1	–	–	–	–	·	10µM
CC(=O)NCCCN(Cc1ccc(Cl)c(Cl)c1)c1ccc(Br)cn1	·	–	·	·	·	·
Oc1ccc(Cl)cc1-c1cc(-c2ccco2)[nH]n1	?	–	–	–	–	10µM
Oc1ccccc1-c1cc(-c2ccco2)[nH]n1	–	–	–	–	–	–
COCCc1nn2c(=O)cc(COC(=O)C(c3ccccc3)c3ccccc3)nc2s1	–	–	?	–	·	–
Cc1ccccc1OCC(=O)NCC(C)NC(=O)COc1ccccc1C (stereo not given)	·	–	·	·	·	·
O=S(=O)(c1cccs1)N1CCN(CC(O)COc2cccc(Br)c2)CC1 (stereo not given)	–	–	–	–	–	8.9µM
SMILES	HEK293 tox	Pin1 inhibitor	miR-21 reporter	PTHR1 ag	GLP1R ag	GLP-1R inv ag
COc1ccc(CN(CCC#N)CCC2(c3ccccc3)CC(C)N(C)CC2C)cc1OC (stereo not given)	?	–	–	–	–	10µM
O=C(Nc1ccccc1F)c1nc(S(=O)(=O)Cc2ccccc2F)ncc1Cl	?	–	?	–	·	11µM
CCOC(=O)N1CCN(Cc2nc3cc(NC(=O)C(C)C)ccc3n2C(C)C)CC1	–	–	–	?	·	?
COc1ccc(-c2nn3c(-c4cc(-c5ccccc5)n[nH]4)nnc3s2)cc1	·	–	·	·	·	·
CCOC(=O)c1c(NC(NC(=O)C(C)C)C(Cl)(Cl)Cl)sc2c1CCC2 (stereo not given)	–	–	–	–	–	5.6µM
Fc1ccc(-n2ncc3c(NC4CCCCCC4)ncnc32)cc1	–	–	–	–	·	–
Clc1cccc(-n2ncc3c(NC4CCCCC4)ncnc32)c1	–	–	–	–	·	?
Cc1ccc(-n2ncc3c(NC4CCCCC4)ncnc32)cc1	–	–	–	–	·	10µM
Cc1ccc(-n2ncc3c(NC4CCCCCC4)ncnc32)cc1	–	–	–	–	·	4.5µM
O=S(=O)(c1ccc2ncsc2c1)N1CCN(c2nc(-c3cccs3)nc3ccccc23)CC1	·	–	·	·	·	·
Cc1cc2c(s1)c1cnn(Cc3ccc(C(C)(C)C)cc3)c(=O)c1n2C	·	–	·	·	·	·
O=S(=O)(c1ccc(Cl)c(Cl)c1)c1snnc1-c1ccccc1	?	–	?	–	–	7.1µM
c1ccc(-c2nnsc2-c2ccccc2)cc1	–	–	–	–	–	?
COc1ccc(-c2nc3ccccn3c2Nc2ccccc2C)cc1	·	–	·	·	·	·
O=C(Cc1ccccc1)Nc1sc2c(c1C(=O)Nc1ccc(Cl)cc1)CCOC2	·	–	·	·	·	·
Fc1ccc(N2N=C(c3cccs3)CC2c2ccccc2)cc1 (stereo not given)	–	?	–	–	–	11µM
Cc1ccc(-c2nc(C)c(C(=O)O)s2)cc1	–	–	–	–	–	10µM
Cc1nc(-c2ccccc2)sc1C(=O)O	–	–	–	–	–	–
NC(N)=N/N=C/c1ccc(OS(=O)(=O)c2ccccc2)cc1	?	–	–	–	–	6.3µM
O=C(O)CSC1=NS(=O)(=O)c2ccccc21	·	–	·	·	·	·
